The target of the experiment is recombinant human Estrogen Receptor alpha ligand binding domain (ER alpha-LBD (GST)) (Homo sapiens (Human), UniProt P03372). Put plainly: ERα Binding Assay (LanthaScreen TR-FRET competition). The following applies: single experiment or average of repeats. A general note: TR-FRET usually uses a lanthanide donor and a delayed reading to cut background.

Amino acid sequences for entries named in this document (tags omitted). Residues count along the entry.
UniProt P03372, 311-547: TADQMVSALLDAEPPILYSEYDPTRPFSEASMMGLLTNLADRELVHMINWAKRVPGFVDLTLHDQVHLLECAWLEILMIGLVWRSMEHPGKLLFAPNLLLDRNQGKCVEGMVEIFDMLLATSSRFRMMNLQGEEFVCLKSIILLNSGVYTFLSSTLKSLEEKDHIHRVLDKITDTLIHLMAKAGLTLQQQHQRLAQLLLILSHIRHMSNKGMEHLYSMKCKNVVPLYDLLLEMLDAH

pIC50: −log10 of the molar value.

The pIC50 is the IC50 on a negative log10 scale, so that one unit is a factor of ten. For `C[C@H](CF)CN1[C@H](c2ccc(/C=C/C(=O)O)cc2)c2[nH]c3ccccc3c2C[C@H]1C` [Example 4, (E)-3-(4-((1R,3R)-2-((S)-3-fluoro-2-methylpropyl)-3-methyl-2,3,4,9-tetrahydro-1H-pyrido[3,4-b]indol-1-yl)phenyl)acrylic acid], the pIC50 is 8.80.
